From PubChem BioAssay AID1721 (National Center for Advancing Translational Sciences (NCATS), 2009)
Among all 290,000 compounds or so, about 1,100 (0.38%) were called active. Listed are the inconclusive results; actives and inactives stand elsewhere. The call rests on the fitted dose curve; in most records, active means well fitted inhibition curve with a large enough effect; inconclusive means small, poorly fitted or top-dose-only effect, or another doubt; inactive means no such curve, though single readings can be large or run the other way.

Sequences of proteins named here, by UniProt entry; tags and fusion partners are left off. A change or cut given only in a name is not applied to a line headed by its entry.
UniProt Q27686: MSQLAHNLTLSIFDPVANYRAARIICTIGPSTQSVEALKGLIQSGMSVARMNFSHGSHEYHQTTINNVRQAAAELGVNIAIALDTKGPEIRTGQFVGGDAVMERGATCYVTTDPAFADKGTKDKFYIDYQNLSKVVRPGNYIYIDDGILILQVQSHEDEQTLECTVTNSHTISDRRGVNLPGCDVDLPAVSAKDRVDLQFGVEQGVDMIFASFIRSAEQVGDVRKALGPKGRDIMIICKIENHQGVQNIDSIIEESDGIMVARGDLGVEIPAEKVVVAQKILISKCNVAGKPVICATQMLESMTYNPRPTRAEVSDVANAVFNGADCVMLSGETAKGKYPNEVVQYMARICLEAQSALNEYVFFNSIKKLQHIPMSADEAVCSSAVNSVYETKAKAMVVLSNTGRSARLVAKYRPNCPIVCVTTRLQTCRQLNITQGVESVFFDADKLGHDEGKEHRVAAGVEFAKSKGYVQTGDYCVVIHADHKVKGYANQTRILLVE

These compounds were tested against Pyruvate kinase (Leishmania mexicana) (UniProt Q27686) (assay: qHTS Assay for Inhibitors of Leishmania Mexicana Pyruvate Kinase (LmPK)). Conditions: purified LmPK, Kinase-Glo ATP luminescence, 1 h.
Excerpt: NIH Chemical Genomics Center [NCGC] Malcolm Walkinshaw, Hugh Morgan, Linda Gilmore University of Edinburgh, UK MLPCN Grant: 1 R03 MH085697-01 NCGC Assay Overview: Pyruvate kinase (L. Mexicana) (LmPK) enzyme was supplied as a highly purified (>95% pure) sulphate-free preparation from University of Edinburgh, UK and assayed for its ability to generate ATP from ADP using phosphoenolpyruvate (PEP) as a substrate. ATP generation was detected in a coupled reaction by luciferase-mediated luminescence, an ATP-dependent process. […] The enzyme was assayed at an intermediate level of activity to screen for both inhibitors and activators.
NCGC Assay Protocol Summary: Three uL of enzyme mix (kept on ice) in assay buffer (50 mM Imidazole pH7.2, 50 mM KCl, 7 mM MgCl2, 0.01% Tween 20, 0.05% BSA) containing PEP (0.5 mM final concentration) and LmPK (0.1 nM final concentration) was dispensed into white solid bottom 1,536 well microtiter plates. 23 nL of compound were delivered by a pin tool and 1 uL of ADP mix in assay buffer (r.t; 0.1 mM final ADP concentration) was added. Plates were incubated at room temperature for 1 hour. Two uL of detection mix (Kinase-Glo, Promega; at 4 degree Celsius protected from light) was added and luminescence read by a ViewLux (Perkin Elmer) at 1 second exposure/plate. Data were normalized to the uninhibited and AC100 inhibition (no enzyme). […]
Potency means the concentration at half of the fitted maximal effect.

SMILES	Potency
CS(=O)(=O)c1cc([N+](=O)[O-])c2no[n+]([O-])c2c1	inconclusive: 7.94 µM
